# Binding of CDR-mutated scFvs to a peptide of the spike HR2 region

Source: Engelhart et al. 2022 (doi:10.1038/s41597-022-01779-4), MIT Lincoln Laboratory and A-Alpha Bio; data file from the FLAb repository.

All variants were tested on one target, the spike HR2 peptide PDVDLGDISGINAS (SARS-CoV-2).

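Library AAYL49 holds single substitutions and randomly drawn double and triple substitutions in the CDRs. AlphaSeq pools MATa yeast showing the antibodies with MATalpha yeast showing the peptide. Mating (16 h, 30 °C) was followed by selection of diploids and sequencing of their barcodes. The ratio of observed to expected reads was calibrated, replicate by replicate, on BCL2-family standards whose Kd was known from biolayer interferometry. Mating was done three times.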

The variants keep the light chain, the linker and the frameworks of Ab-14 (scFv order VH, a (GGGGS)3 linker, VL).
VH: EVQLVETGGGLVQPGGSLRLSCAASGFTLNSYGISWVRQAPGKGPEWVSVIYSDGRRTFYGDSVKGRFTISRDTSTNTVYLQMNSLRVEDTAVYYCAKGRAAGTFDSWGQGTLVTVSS
VL: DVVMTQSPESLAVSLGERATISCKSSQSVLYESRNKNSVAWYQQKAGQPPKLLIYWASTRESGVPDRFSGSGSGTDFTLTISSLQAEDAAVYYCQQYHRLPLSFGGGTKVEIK

Each variant is given by its three heavy chain CDRs, as the data file delimits them; those of the parent are GFTLNSYGIS, VIYSDGRRTFYGDSVK, GRAAGTFDS.
Values are log10 of the apparent Kd in nM; lower means stronger binding.
The mean shown is taken over the replicates in which the pair was detected.
"no signal" marks a missing value. The strain was present, yet no cells mated with the target were sequenced in any replicate, which points to weak or no binding.
As a blank, each scFv also met three strains without target: over library AAYL49, 15% of these pairings were detected, typically at 4.06 and seldom below 2.83.

CDR-H1	CDR-H2	CDR-H3	mean log10 Kd (nM)	seen in
GFTLNSYGIS	VIYSDGRRTFYGDSTK	GWAPGTFDS	no signal	0/3
GFTLNSYKIQ	VNYSDGRRTFYGDSVK	GRAAGTFDS	3.86	1/3
GFTLNSYGIS	FIYSDGRRTFYGDHAK	GRAAGTFDS	3.61	1/3
GFTCNHYGIS	VIYSDGRRPFYGDSVK	GRAAGTFDS	no signal	0/3
GFTLNSYGIS	VIYSDGRRTYYGDSVK	GRAAGTFDV	no signal	0/3
GMTLNSYGIS	VIYSDGPRTFYGDSVK	GRAMGTFDS	no signal	0/3
GFTLNSYGIS	VIYSDGRRTFYGDSVK	GRAAWTFQS	no signal	0/3
GFTLNSYPIS	VIKSDGRRTFYGDCVK	GRAAGTFDS	3.82	2/3
GFTLDSYGIS	VIYSDGRRTFYGGSVK	KRAAGTFDS	no signal	0/3
GFTLMSYGIS	VIRSDGRRTFYMDSVK	GRAAGTFDS	no signal	0/3
GFTLNSYGIS	VIISDGRQTFYGDSVK	GRAAGTFYS	no signal	0/3
GFTLNSYGID	VIYSGGRRTFYGDSVK	GRAAGQFDS	2.76	1/3
GFTLNVYGGS	VIYSDGRRTFYGDSVK	GRAAGTFRS	no signal	0/3
GFTYNSYGIS	VIYSDGRRTFYGDSVR	GRAAGTFDK	no signal	0/3
GFTLNSFGIS	VIYSDGRRTFYGDSVK	GRFAGTFQS	4.64	1/3
GFTDNSYGIS	VIYSDGRRTFYGDSVK	GRTAGTFAS	3.98	2/3
GFTLNSYGIS	VIYSSGRRTHYGDSVK	ERAAGTFDS	no signal	0/3
GFTLNSYGIS	VILSDGRLTFYGDSHK	GRAAGTFDS	no signal	0/3
GFTLNTYGIS	VIYSVGRRTFYGDSVK	GRAAGTFDS	no signal	0/3
GFTLNSHGIS	VIYSDGRRTFYGDGVK	ARAAGTFDS	2.40	3/3
GFTYNSYGIS	VIYSDGRRTFYGSSVK	GRAAGTFSS	4.21	1/3
GFLLNSYGIS	VIYSDGRRTFYGQSVK	GRMAGTFDS	2.16	3/3
GFTNNSKGIS	VIYSDGRRTFYGDSVK	GRAAGTFWS	no signal	0/3
GFTLNSYGIS	VIYHDGRRTFYGDSVQ	GRAAGRFDS	no signal	0/3
GFTLNSYGIS	VIYHDGRRTFPGDSVK	GRAAGTFGS	no signal	0/3
GFTLESYGIS	VIYSDGRVTFYGDSVK	GRAKGTFDS	no signal	0/3
GFTLNSYGIS	KIYKDGRRTFYGDSVK	GRAAGTFDS	5.56	2/3
GFQLNSYGIS	VIYSDGRKTFYGDSVK	GRAAGTFDY	2.77	2/3
GFTLNSYGIS	AIYSDGKRTFYGDSVL	GRAAGTFDS	3.18	1/3
GFTLNSYGIS	VIYSDGRRNFYGHSVK	GRAAVTFDS	no signal	0/3
GFTLNDYGIS	VIYSDGRRLFYGDSVK	GRAAGTFDS	0.41	3/3
GFTLNSYGIS	VIYSDGRRTFYADSVK	GRAAFDFDS	1.39	3/3
GFTLNSTGIS	VIYSDGRRTAYGESVK	GRAAGTFDS	3.62	2/3
WFTLNSYGQS	VIYSDGRRTFYGDSVK	NRAAGTFDS	no signal	0/3
GFTLNLYGIS	VIWSDGRRTFYGDSVK	GRAAGRFDS	no signal	0/3
GFTLNSYGIS	VIYSWERRTFYGVSVK	GRAAGTFDS	no signal	0/3
GFTQNSYGIS	VIYADGRRTFYGDSVK	GRAAGTFDS	1.36	3/3
GFTLNSYGIS	VIYSDGRRTFYGTSVK	GRQHGTFDS	4.16	1/3
GFTLNSYGIS	VIYSDHYRTFYGDFVK	GRAAGTFDS	3.73	2/3
GFTLNSYGIS	VIHSDGRRTFYGDSKK	GRAMGTFDS	no signal	0/3
LFTLNSYGIS	VIYSDGRRTFYGDSVK	GRDAGTDDS	no signal	0/3
GFTLNSYGIS	MIYSDGERTFYGDSVK	IRAAGTFDS	4.23	2/3
GRTLNSYGIS	VIYSDSRRTFYGDSVK	GRAGGTFDS	2.54	1/3
GFTLNSRGIS	VIYSDGRRTFYGDSLK	GSAAGTFDS	no signal	0/3
GFTLNSLGIS	EIYSDGRRTFYGDSVK	GRFAGTFDS	4.86	1/3
IFTLNSYGIS	VIESDGRRTFCGDSVK	GRAAGTFDS	3.63	2/3
GFTLNSYGIS	VIYSDGRRTFYGASVK	PTAAGTFDS	no signal	0/3
GFTLNSYGIS	VIYKVGRRTFYIDSVK	GRAAGTFDS	no signal	0/3
GFTLNTYGIS	WIYSDGRRTFYPDSVK	GRAAGTFDS	no signal	0/3
GFSLNSYGIS	SIYSDGPRTFYGDSVK	GRAAGTFDS	no signal	0/3
GCTLNSYGIS	RIYSDGRRTFYIDSVK	GRAAGTFDS	4.87	1/3

A selection of 8 entries from above:

CDR-H1	CDR-H2	CDR-H3	mean log10 Kd (nM)	seen in
GMTLNSYGIS	VIYSDGPRTFYGDSVK	GRAMGTFDS	no signal	0/3
GFTLNSYGIS	VIYSDGRRTFYGDSVK	GRAAWTFQS	no signal	0/3
GFTLNSYKIQ	VNYSDGRRTFYGDSVK	GRAAGTFDS	3.86	1/3
GFTLESYGIS	VIYSDGRVTFYGDSVK	GRAKGTFDS	no signal	0/3
GFTLNSYGIS	VIYSDHYRTFYGDFVK	GRAAGTFDS	3.73	2/3
GFTLNSYGIS	VIYHDGRRTFYGDSVQ	GRAAGRFDS	no signal	0/3
GFTLNSYGIS	KIYKDGRRTFYGDSVK	GRAAGTFDS	5.56	2/3
GFTLNSYGIS	VIYSDGRRTFYADSVK	GRAAFDFDS	1.39	3/3